Laboratory results from PMC9609429, “HBK-10, A Compound with α1-Adrenolytic Properties, Showed Antiarrhythmic and Hypotensive Effects in Rats” (Pharmaceuticals, 2022).

Target: α2-adrenoceptor
Experiment: α2-adrenoceptor radioligand binding assay ([3H]-clonidine, rat cerebral cortex)
Conditions: rat cortex tissue
Experimental: The α1-, α2-, and β1-adrenoceptor radioligand binding assay was carried out on the rat cerebral cortex. [^3H]-prazosin (19.5 Ci/mmol, α1-adrenoceptor), [^3H]-clonidine (70.5 Ci/mmol, α2-adrenoceptor), and [^3H]-CGP-12177 (48 Ci/mmol, β1-adrenergic receptor) were used as specific ligands. The brains were homogenized using ULTRA-TURRAX homogenizer in 10 mL of an ice-cold 50 mM Tris–HCl buffer (pH 7.6). Homogenates were centrifuged at 20,000× g for 20 min (0–4 °C). Next, the cell pellet was resuspended in the Tris–HCl buffer and centrifuged again. Radioligand binding assays were performed in plates (MultiScreen/Millipore). The final incubation mixture (volume 300 μL) consisted of 240 μL of the tissue suspension, 30 μL of radioligand solution, and 30 μL of the buffer containing 7–8 concentrations of the tested compound. In order to measure the unspecific binding, 10 μM phentolamine (for [^3H]-prazosin) or 10 μM clonidine (for [^3H]-clonidine) or 1 μM of propranolol (in the case of [^3H]-CGP-12177) were used. The incubation was terminated by rapid filtration through Whatman GF/C filters using a vacuum manifold (Millipore). The filters were then washed twice with the assay buffer and placed in scintillation vials with a liquid scintillation cocktail. Radioactivity was measured in a WALLAC 1409 DSA liquid scintillation counter (Perkin Elmer, Waltham, MA, USA). […]

- Adrenergic Receptors—pKi α2: 8.60
SMILES: Clc1cccc(Cl)c1N=C1NCCN1 [Clonidine, clonidine, reference compound]
